Experimental data reported in US6599892B2, “7-alkylidene cephalosporanic acid derivatives and methods of using the same” (Research Corporation Technologies, Inc., priority 1994, dated 2003).

Target: E. coli. W3310 β-lactamase (TEM2) (Escherichia coli, UniProt P62593, Q37K)
Settings: read-out: IC50 (nM) E. Coli WC3310; 10 minute incubation of enzyme and inhibitor; nitrocefin substrate

Q: With “Sodium salt of 7-[(Z)-t-butoxymethylene] cephalosporanic acid sulfone [Compound 7g]” as the substance, how does the IC50 read?
A: 5 nM
